Molecular target: human 5-HT6 receptor (Homo sapiens, UniProt P50406)
Assay: Human 5-HT6 Receptor Binding Assay ([3H]LSD displacement, scintillation beads)
Details: read-out: h5-HT6 (Ki); membranes of CHO-K1 cells with recombinant human 5-HT6, 4 nM [3H]LSD; Table 1, class symbols; tested form: HCl

By UniProt entry, the sequences of proteins in these tests, tags left out.
UniProt P50406, whole entry: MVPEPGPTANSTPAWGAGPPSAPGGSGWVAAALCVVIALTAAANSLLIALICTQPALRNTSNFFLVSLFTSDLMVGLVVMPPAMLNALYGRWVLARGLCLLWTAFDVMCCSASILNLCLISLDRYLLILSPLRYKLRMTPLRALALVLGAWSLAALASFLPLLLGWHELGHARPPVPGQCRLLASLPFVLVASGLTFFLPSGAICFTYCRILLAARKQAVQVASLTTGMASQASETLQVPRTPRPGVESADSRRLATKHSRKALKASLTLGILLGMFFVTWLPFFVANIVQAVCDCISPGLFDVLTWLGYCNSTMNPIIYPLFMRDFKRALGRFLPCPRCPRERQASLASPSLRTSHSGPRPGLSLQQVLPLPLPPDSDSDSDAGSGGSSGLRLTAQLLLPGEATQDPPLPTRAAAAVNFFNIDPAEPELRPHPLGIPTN

Row | Structure (SMILES) | Ki
1 | O=S(=O)(c1ccccc1)c1ccc2c3c([nH]c2c1)C1(CCCOC1)NCC3 (single isomer, unassigned) | < 0.5 µM
2 | O=S(=O)(c1cccc(C(F)(F)F)c1)c1ccc2c3c([nH]c2c1)C1(CCCOC1)NCC3 (single isomer, unassigned) | < 0.5 µM

Reference: patent US8765779B2, “Tricyclic derivatives and their pharmaceutical use and compositions” (Cephalon, Inc., priority 2009, dated 2014)
